Apparent affinities of Ab-14 variants for a coronavirus HR2 peptide

Reference: Engelhart et al. 2022, doi:10.1038/s41597-022-01779-4. File: FLAb, binding data.

Target peptide (SARS-CoV-2 spike, HR2 region): PDVDLGDISGINAS

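The starting antibody came from a phage panning campaign against this peptide. Library AAYL49 holds single substitutions and randomly drawn double and triple substitutions in the CDRs. AlphaSeq pools MATa yeast showing the antibodies with MATalpha yeast showing the peptide. The frequency of each diploid, read from paired DNA barcodes, reflects how well the two displayed proteins bind. Read counts were normalised to the haploid input and turned into Kd by a linear fit to BCL2-family pairs of known affinity, for each replicate. The assay was run in three technical replicates.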

Ab-14 is the parent antibody, in scFv form: VH, then the linker GGGGSGGGGSGGGGS, then VL. The light chain is unchanged in all variants.
VH: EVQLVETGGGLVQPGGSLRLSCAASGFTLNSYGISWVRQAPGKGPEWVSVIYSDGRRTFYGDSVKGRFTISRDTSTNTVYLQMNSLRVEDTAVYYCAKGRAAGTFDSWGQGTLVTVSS
VL: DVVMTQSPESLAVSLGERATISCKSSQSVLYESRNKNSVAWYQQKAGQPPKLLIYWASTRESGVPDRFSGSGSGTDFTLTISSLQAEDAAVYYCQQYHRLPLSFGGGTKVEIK

Variants are written as CDR1, CDR2 and CDR3 of the heavy chain (limits as in the source). Parent: GFTLNSYGIS, VIYSDGRRTFYGDSVK, GRAAGTFDS.
All variants listed here change N30 of the VH, counted from its first residue.
Numbers give log10(Kd / nM), so 0 is 1 nM and 3 is 1 µM. Smaller is tighter.
Where no diploid with the target was found in that replicate, the entry reads "nd": below detection, most likely a poor binder, though not proof of it.
Three control strains display no target. For library AAYL49, 15% of the pairings with them gave a signal, with a median of 4.06 and one signal in twenty below 2.83, so weak values seen in few replicates may be background. Also given: how often the same scFv was detected with the empty control strains.
In this assay the parent's reference entry averaged 0.65; its copy inside this library read 4.11 (one replicate of three).

The variant GFTLCSYGIS | VIYSDGRRMFYGDSVK | GRAAGTFDS showed 1.13, 1.14, 1.42 (controls 2 of 9). The variant GFTQMSYDIS | VIYSDGRRTFYGDSVK | GRAAGTFDS gave nd, nd, nd (controls 4 of 9). With GFTLFQYGIS | VIYSDGRRTFYGDSVK | GRAAGTFDK the result was 0.96, 0.89, 0.81 (controls 2 of 9). With GFTLWSYGIS | VIYSDGRRTFYGDSVK | GRAAGVIDS the result was 3.98, 4.78, 3.71 (controls 4 of 9). With RFTLFSYGIS | VIYSDGRRTFYGDSVK | GRAAGTFAS the result was nd, nd, nd (controls 0 of 9). For GFQLHSGGIS | VIYSDGRRTFYGDSVK | GRAAGTFDS, the assay gave nd, nd, nd (controls 0 of 9). The variant GFTLPSYGQS | VIYSDGRRTFYGDSVK | GRAAGTFDS gave nd, nd, nd (controls 0 of 9).

With GFTLQSYGIS | VIYSCGRRTFYGDSVK | GRDAGTFDS the result was nd, nd, nd (controls 0 of 9). For GFTLQCYGIS | VIYSDGRRTFYGISVK | GRAAGTFDS, the assay gave nd, nd, 4.93 (controls 1 of 9). For GFTLESYGIS | VIYSDGRRTFYGDSVK | GRASGTFDS, the assay gave 3.46, 3.74, 4.12 (controls 1 of 9). For QFTLTSYGIS | VIYSDGRRTFYGDSVK | GRATGTFDS, the assay gave nd, nd, nd (controls 0 of 9). For GFTLSSCGIS | VIYSDGRRAFYGDSVK | GRAAGTFDS, the assay gave 3.56, 2.39, 3.17 (controls 2 of 9). With GFTLTSYVIS | VIYSDGRRTFYVDSVK | GRAAGTFDS the result was nd, nd, nd (controls 0 of 9). For GTTLISYGIS | VIYSWGRRTFYGDSVK | GRAAGTFDS, the assay gave nd, nd, nd (controls 0 of 9).

For GFTLYSYGIS | VIGSDGMRTFYGDSVK | GRAAGTFDS, the assay gave nd, 3.57, nd (controls 2 of 9). The variant GFTLGSYGIS | VIYSDGRRTFYGDSVK | TRAWGTFDS gave 5.15, 3.08, nd (controls 4 of 9). For GFTLISYGIS | WIYSDGRRTFYGDSVK | GRAAGTFDS, the assay gave nd, nd, 4.05 (controls 1 of 9). The variant GFTLMSYGIS | VIYSDGRRTFYGDSVK | RRAAGTFDS showed 2.44, 2.32, 2.71 (controls 0 of 9). For GDTLYSYGIS | VIYSDGRRTFYGDSVK | GRACGTFDS, the assay gave nd, nd, nd (controls 1 of 9). With GFTLDSYGIS | VIYSDGRRTFYGDSVK | GRAAGTFDA the result was 0.14, 0.50, 0.39 (controls 3 of 9). The variant GFTLRWYGIS | VITSDGRRTFYGDSVK | GRAAGTFDS gave nd, nd, 3.30 (controls 1 of 9).

For GRTLISYGIS | VIYSDGRRTFYGDSVK | GRAAGTFDH, the assay gave nd, nd, nd (controls 3 of 9). The variant GFYLCSYGIS | VIYSDGRRTFYGDSVK | GRAACTFDS gave 5.25, 3.36, nd (controls 3 of 9). With GFTLSSYGIS | VIYSDGRRTWYGDSVK | GRAAGKFDS the result was 5.04, 3.50, nd (controls 6 of 9). For GFTLQSYGIS | VIYSDGRRTFYGDSVK | GRRAGVFDS, the assay gave 1.07, 1.24, 1.35 (controls 2 of 9). With GFTLKSYGIS | VIYSDGRRTFYGDSEK | GRTAGTFDS the result was 4.35, 4.56, nd (controls 1 of 9). The variant GFTLCSYGIS | VIYSLGRRTFYGDSVK | VRAAGTFDS gave nd, nd, nd (controls 1 of 9). The variant GFTLFDYGIS | VIYSDGRRTFYGDSVK | GRAAGTFDS showed 2.48, 2.57, 3.17 (controls 2 of 9).

The variant GFTLYSYGIS | VIYSDGRRTFYGDSVK | VREAGTFDS showed nd, nd, nd (controls 0 of 9). The variant GFTLYSYGIS | VIYGDGRRTFYGDSVK | GRAAGMFDS gave nd, nd, nd (controls 2 of 9). For GFTLTSYLIS | VIYSDGRRTFYGDSVK | GRYAGTFDS, the assay gave nd, nd, nd (controls 0 of 9). For GFTLISYGIS | GIYSPGRRTFYGDSVK | GRAAGTFDS, the assay gave 4.34, nd, nd (controls 0 of 9). The variant GETLASYGIS | VIYSDGRRTFYGDSPK | GRAAGTFDS showed nd, nd, nd (controls 2 of 9). The variant GFTLFSHGTS | VIYSDGRRTFYGDSVK | GRAAGTFDS showed nd, nd, nd (controls 0 of 9). With GFTLHSYGIS | VIYSDGRRTFYGDSVK | GRAAGTFDS the result was 1.03, 1.09, 1.24 (controls 2 of 9).

With GGTLESYGIS | VIYSDGRRTFYGDSVK | GRAAGTSDS the result was 1.64, 1.58, 1.96 (controls 0 of 9). The variant GFTLPSYGIS | VIYSDRRRTFYGDSWK | GRAAGTFDS showed nd, nd, nd (controls 0 of 9). The variant MFTLGSYGIS | VIYSDGRRTFYGDSVK | GRAAGTFDS showed nd, 4.02, nd (controls 0 of 9). The variant GFTLASYGIW | VIYSDGRRTFYGDSVK | TRAAGTFDS showed nd, nd, nd (controls 0 of 9). With GFTLLSYGIM | VIYSDGRRTFYGDSVK | GRAAGTGDS the result was nd, nd, nd (controls 1 of 9). The variant GFTKESYGIS | VIYSDGRRTFYGDSVK | GMAAGTFDS gave nd, nd, nd (controls 1 of 9). For GFQLWSYGIS | VIYSDGRRTFYGDSVK | GRAAGTFDS, the assay gave 1.89, 1.90, 1.92 (controls 1 of 9).

The variant GFTNFSYGIS | VIYSDGRRTFYGDSVK | GRAAGTYDS showed nd, 3.61, nd (controls 1 of 9). For GFTLYSYGIM | VIYSDLRRTFYGDSVK | GRAAGTFDS, the assay gave 4.33, 3.51, nd (controls 0 of 9). For GFTLWSYGIS | VILSDGRRTFWGDSVK | GRAAGTFDS, the assay gave nd, nd, nd (controls 0 of 9). For GFTLVSYGIS | RIYSDGRRTFYGDSVK | GRAAGTFCS, the assay gave nd, nd, nd (controls 0 of 9). The variant GFTLYSYGIS | VIYSDGRRTFYGDFVK | GRMAGTFDS showed 2.20, 2.84, 2.96 (controls 1 of 9). For GFTLVSYGIS | HIYSDGRRTFYGDSVK | GRAAGAFDS, the assay gave 5.14, 4.15, nd (controls 1 of 9). The variant GFTLVSYGIS | VIYPDGRRTFGGDSVK | GRAAGTFDS showed 3.95, 4.05, nd (controls 7 of 9).

Picked from the list: the 3 lowest averages where every replicate gave a value.

The variant GFTLDSYGIS | VIYSDGRRTFYGDSVK | GRAAGTFDA showed 0.14, 0.50, 0.39 (controls 3 of 9).
The variant GFTLFQYGIS | VIYSDGRRTFYGDSVK | GRAAGTFDK showed 0.96, 0.89, 0.81 (controls 2 of 9).
The variant GFTLHSYGIS | VIYSDGRRTFYGDSVK | GRAAGTFDS showed 1.03, 1.09, 1.24 (controls 2 of 9).